# Results published in US5990078A, “Means of increasing estrogen receptor levels in neural tissue” (The Trustees of Columbia University in the City of New York, priority 1996, dated 1999).
# Entries after “also recorded” stand apart in the source; their conditions may differ.
# Tested on: trkA mRNA
# Assay: Northern blot analysis of trkA mRNA in NGF-treated PC12 cells
compound,measurement,setting,value
"C[C@]12CC[C@@H]3c4ccc(O)cc4CC[C@H]3[C@@H]1CC[C@@H]2O [estradiol, 17-β estradiol]",Effect on trkA mRNA,3 days of estrogen treatment,very small effect; also recorded: did not visibly alter
same,Increase in trkA mRNA (normalized to 18S RNA),7 days of estrogen treatment,two-fold; also recorded: twofold
